According to publication PMC5063576, “High Potency VEGFRs/MET/FMS Triple Blockade by TAS-115 Concomitantly Suppresses Tumor Progression and Bone Destruction in Tumor-Induced Bone Disease Model with Lung Carcinoma Cells” (PLoS ONE, 2016):

Test system: M-CSF dependent bone marrow macrophages (MDBMs)
Test: In vitro osteoclast differentiation assay (TRAP activity)
Format: cell-based, mouse
Settings: MDBMs with hM-CSF and rhsRANKL for 4 days
Method: To prepare macrophage colony-stimulating factor (M-CSF) dependent bone marrow macrophages (MDBMs), bone marrow cells were obtained from the femurs of male BALB/c mice (CLEA Japan) and adherent cells were cultured with human M-CSF (hM-CSF; 10000 U/mL) for 6 days. MDBMs were collected and cultured with hM-CSF (10000 U/mL) and recombinant human soluble RANKL (rhsRANKL)-GST (5 nM) for 4 days (25000 cells/well in a 96 well flat plate) for induction of differentiation into osteoclasts. Test compounds were then added to the culture media at the indicated concentration. TRAP activities were measured using the commercially available TRACP and ALP Assay Kit (TAKARA BIO INC).

| SMILES | concentration that potently inhibited / markedly affected RANKL and M-CSF-induced mouse osteoclast formation |
| --- | --- |
| COc1cc2nccc(Oc3ccc(NC(=O)C4(C(=O)Nc5ccc(F)cc5)CC4)cc3)c2cc1OC [Cabozantinib] | 1 µM |
| CCN(CC)CCNC(=O)c1c(C)[nH]c(/C=C2\C(=O)Nc3ccc(F)cc32)c1C [Sunitinib] | 0.1 µM |
